This assay has as its target BIM (UniProt O43521). Briefly: HA-tag co-IP, BIM blot. To be noted: sites S62.

For “BCL-XL (from UniProt Q07817) S62A in H2030 EV”, the “binding against the reference” value (reference: wild-type HA-BCL-XL in H2030 EV) is on record as “stronger”.

As for “BCL-XL (from UniProt Q07817) S62A in MGH1112-1 EV”, the “binding against the reference” value (reference: wild-type HA-BCL-XL in MGH1112-1 EV) was “stronger”.
